Assay results as given in PubChem BioAssay AID602332 (National Center for Advancing Translational Sciences (NCATS), 2012).
Values joined by “and” are separate entries in the source; they are usually repeats but may differ in a detail not shown here. Equal values may be shown once. The list shows a part of the results, in another mix than the full data. Active and inactive are the calls of the source. Calls come from the whole dose curve; as a rule, active = well fitted activation curve with a large enough effect; inconclusive = small, poorly fitted or top-dose-only effect; inactive = no such curve, though single readings can be large or run the other way.

Experiment: qHTS for Inducers of the Endoplasmic Reticulum Stress Response (ERSR) in Human Glioma: qHTS; note: % of control where 0% means no effect; nearly all actives have a fitted effect of over 35% in size
Settings: U87-MG GRP78 promoter luciferase reporter, 16 h; stronger effect = higher value
For `COc1ccc(OP(C)(=O)Nc2ccccc2Br)cc1` (configuration not stated), the activation was inactive: -4.05%. For `COc1ccccc1OP(C)(=O)Nc1ccc(C)c(C)c1` (configuration not stated), the activation was inactive: -1.44%. For `Cc1cc(C)cc(OP(C)(=O)Nc2cccc(C(F)(F)F)c2)c1` (configuration not stated), the activation was inactive: -5.63%. For `CP(=O)(Nc1ccc(Cl)cc1Cl)Oc1ccccc1` (configuration not stated), the activation was inactive: -0.771%. With `CCCCCCCCCCCCCCCC1C[N+](C)(C)CCOP(C)(=O)O1` (configuration not stated) the activation was inactive: -4.64%. For `CP(=O)(OCCOc1ccccc1)OCCOc1ccccc1`, the activation was inactive: -2.72%. With `CN(C)CCOC(=O)C(O)(c1ccccc1)C1CCCC1` (configuration not stated) the activation was inactive: -4.73%. In the case of `COc1ccc(OP(C)(=O)Nc2ccccn2)cc1` (configuration not stated), the activation is reported as inactive: -0.631%. In the case of `COc1ccccc1OP(C)(=O)Nc1ccc(Br)cc1` (configuration not stated), the activation is reported as inactive: 2.6%. For `CCc1ccc(OP(C)(=O)O)cc1`, the activation was inactive: -1.29%. In the case of `COc1ccccc1OP(C)(=O)Nc1ccc(C)cc1C` (configuration not stated), the activation is reported as inactive: 1.14%. For `CP(=O)(Nc1ccccn1)Oc1ccccc1` (configuration not stated), the activation was inactive: -3.13%. In the case of `Cc1c(NP(C)(=O)Oc2ccc(C(C)C)cc2)c(=O)n(-c2ccccc2)n1C` (configuration not stated), the activation is reported as inactive: -2.34%. In the case of `O=[N+]([O-])c1cc([N+](=O)[O-])c(Nc2ccccn2)c([N+](=O)[O-])c1`, the activation is reported as inactive: -12.2%. With `CCc1ccc(OP(C)(=O)Nc2cccnc2)cc1` (configuration not stated) the activation was inactive: -5.26%. With `CP(=O)(Oc1ccccc1)N1CCOC1=O` (configuration not stated) the activation was inactive: 3.59%. For `OCCSCCO`, the activation was inactive: -1.72%. With `O=C(OCCCN1CCCC1)C(O)(c1ccccc1)C1CCCCC1` (configuration not stated) the activation was inactive: -1.2%. With `COc1ccccc1OP(C)(=O)Nc1c(C)n(C)n(-c2ccccc2)c1=O` (configuration not stated) the activation was inactive: -3%. In the case of `COc1ccc(OP(C)(=O)Nc2ccc(Br)cc2)cc1` (configuration not stated), the activation is reported as inactive: -4.03%. For `CCN(CC)CC(O)COC(=O)C(O)(c1ccccc1)C1CCCCC1` (configuration not stated), the activation was inactive: -6.24%. With `CN(C)C(=O)c1c([N+](=O)[O-])cc([N+](=O)[O-])cc1[N+](=O)[O-]` the activation was inactive: -8.14%. For `CP(=O)(Nc1ccc(Cl)cc1)Oc1ccc(F)cc1` (configuration not stated), the activation was inactive: -4.45%. In the case of `COc1ccccc1OP(C)(=O)Nc1ccccc1Br` (configuration not stated), the activation is reported as inactive: 4.75%. In the case of `CC(C)(C)c1ccc(OP(C)(=O)O)cc1`, the activation is reported as inactive: -5.44%. With `CP(=O)(OC12CC3CC(CC(C3)C1)C2)OC12CC3CC(CC(C3)C1)C2` the activation was inactive: -3.66%. With `CCOC(=O)c1ccc(NP(C)(=O)Oc2ccc(Cl)cc2)cc1` (configuration not stated) the activation was inactive: -2.63%. With `Nc1ccc2c(ccc3cccnc32)n1.O=[N+]([O-])c1cc([N+](=O)[O-])c(O)c([N+](=O)[O-])c1` the activation was inactive: -3.3%. For `CC(C)OP(=O)(F)OC(C)C`, the activation was inactive: -3.7%. In the case of `C/C1=C2N=C(/C=C3N=C(/C(C)=C4\[N-][C@@](C)([C@H]5N=C1[C@@](C)(CCC(=O)NC[C@H](C)OP(=O)([O-])O[C@@H]1[C@H](O)[C@H](n6cnc7cc(C)c(C)cc76)O[C@@H]1CO)[C@@H]5CC(N)=O)[C@](C)(CC(N)=O)[C@H]4CCC(N)=O)[C@@](C)(CC(N)=O)[C@@H]\3CCC(N)=O)C(C)(C)[C@@H]/2CCC(N)=O.[C-]#N.[Co+3]`, the activation is reported as inactive: -5.82%. In the case of `COc1ccc(NP(C)(=O)Oc2ccccc2OC)cc1` (configuration not stated), the activation is reported as inactive: 0.335%. For `CN(C)CCOC(=O)C(O)(c1ccccc1)C1CCCCC1` (configuration not stated), the activation was inactive: -1.86%. With `COc1ccc(OP(C)(=O)Nc2cccc(Br)c2)cc1` (configuration not stated) the activation was inactive: -2.75%. For `Cc1c(C(c2ccc3c(c2)OCO3)c2c(C)n(C)n(-c3ccccc3)c2=O)c(=O)n(-c2ccccc2)n1C.O=[N+]([O-])c1cc([N+](=O)[O-])c(O)c([N+](=O)[O-])c1`, the activation was inactive: -5.23%. In the case of `Cc1cc(-c2cccc3ccccc23)c(C)cn1.O=[N+]([O-])c1cc([N+](=O)[O-])c(O)c([N+](=O)[O-])c1`, the activation is reported as inactive: 2.68%. For `O=[N+]([O-])c1ccc(OP2(=O)COCCO2)cc1` (configuration not stated), the activation was inactive: -0.48%. In the case of `CCOP(C)(=S)SCC(=O)NC(C)(CC)C(=O)O` (configuration not stated), the activation is reported as inactive: -3.34%. With `CP(=O)(Nc1ccc(SC(F)(F)F)cc1)Oc1ccc(F)cc1` (configuration not stated) the activation was inactive: -3.52%. With `Cc1ccccc1NP(C)(=O)Nc1ccccc1C` the activation was inactive: -0.948%. In the case of `CCN(CCCl)Cc1ccccc1C`, the activation is reported as inactive: -1.85%. With `CP(=O)(Nc1ccc2c(c1)OCCO2)Oc1ccccc1` (configuration not stated) the activation was inactive: -4.41%. For `CC(C)c1ccc(OP(C)(=O)Nc2ccc(SC(F)(F)F)cc2)cc1` (configuration not stated), the activation was inactive: 5.23%. For `CP(=O)(Nc1ccccc1F)Oc1ccccc1` (configuration not stated), the activation was inactive: 3.35%. With `CCOP(=O)(CC)Oc1ccc([N+](=O)[O-])cc1` (configuration not stated) the activation was inactive: -4.44%. For `O=C(OCCN1CCN(CCOCc2ccccc2)CC1)C(O)(c1ccccc1)c1ccccc1`, the activation was inactive: -1.84%. In the case of `COc1ccc(OP(C)(=O)Nc2ccc(SC(F)(F)F)cc2)cc1` (configuration not stated), the activation is reported as inactive: 3.63%. In the case of `CCOC(=O)c1ccc(NP(C)(=O)Oc2ccc(F)cc2)cc1` (configuration not stated), the activation is reported as inactive: -1.75%. For `Cc1cccc([N+](=O)[O-])c1[N+](=O)[O-]`, the activation was inactive: -0.613%. In the case of `CCCCCOc1ccc(NP(C)(=O)Oc2ccc(Cl)cc2Cl)cc1` (configuration not stated), the activation is reported as inactive: -3.12%. For `CP(=O)(Nc1ccccc1)Oc1ccc(F)cc1` (configuration not stated), the activation was inactive: -3.37%. In the case of `CCN(CC)CCCOC(=O)C(O)(c1ccccc1)C1CCCCC1` (configuration not stated), the activation is reported as inactive: -1.27%. In the case of `Cc1c([N+](=O)[O-])cc([N+](=O)[O-])c(Br)c1[N+](=O)[O-]`, the activation is reported as inactive: -2.57%. For `O=[N+]([O-])c1cccc([N+](=O)[O-])c1`, the activation was inactive: 4.31% and inactive: -4.23%. For `O=[N+]([O-])OCC(CO[N+](=O)[O-])(CO[N+](=O)[O-])CO[N+](=O)[O-]`, the activation was inactive: -3.49%. For `CC1=NCCc2c1[nH]c1ccccc21.O=[N+]([O-])c1cc([N+](=O)[O-])c(O)c([N+](=O)[O-])c1`, the activation was inactive: -1.94%. With `Cc1cc(C)cc(OP(C)(=O)Nc2ccc(C)cc2C)c1` (configuration not stated) the activation was inactive: -2.69%. In the case of `CCOC(=O)c1ccc(NP(C)(=O)Oc2cc(C)cc(C)c2)cc1` (configuration not stated), the activation is reported as inactive: -3.97%.
